# Biological target: human M1 mAChR (Homo sapiens, UniProt P11229)
# The chains behind the UniProt entries cited, without tags or fusion partners.
# UniProt P11229, whole entry: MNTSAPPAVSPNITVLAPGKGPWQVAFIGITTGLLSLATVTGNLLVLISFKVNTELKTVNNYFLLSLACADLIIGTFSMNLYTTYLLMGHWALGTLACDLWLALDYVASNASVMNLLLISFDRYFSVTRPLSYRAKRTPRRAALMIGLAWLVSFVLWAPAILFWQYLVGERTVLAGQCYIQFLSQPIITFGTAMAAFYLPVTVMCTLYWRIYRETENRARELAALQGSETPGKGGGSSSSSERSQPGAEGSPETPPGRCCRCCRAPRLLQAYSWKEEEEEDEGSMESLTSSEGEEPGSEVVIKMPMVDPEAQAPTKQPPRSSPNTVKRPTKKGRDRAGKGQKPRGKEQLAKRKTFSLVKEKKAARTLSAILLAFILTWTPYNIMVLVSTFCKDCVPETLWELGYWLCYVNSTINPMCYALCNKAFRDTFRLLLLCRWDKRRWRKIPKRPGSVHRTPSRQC
# Settings: saturation binding, membranes expressing human M1 mAChR; tested as the radiolabelled form
smiles,measurement,value
"Cc1cc(F)c2[nH]c(=O)n(C3CCN(C4CCOCC4)CC3)c2c1 [GSK1034702, 7-fluoro-5-methyl-3-[1-(oxan-4-yl)piperidin-4-yl]-1H-benzimidazol-2-one]",Kd,550 nM

# Reference: paper PMC5963591, “Bitopic Binding Mode of an M1 Muscarinic Acetylcholine Receptor Agonist Associated with Adverse Clinical Trial Outcomes” (Molecular Pharmacology, 2018)
